For experiment [1], the system named is glutathione S-transferase (Mus musculus). Put plainly: Induction of increased cytosolic glutathione S-transferase activity in large bowel mucosa of A/J mice treated with 3 doses of 0.04 mM compound (dissolved in 0.3 mL of cottonseed oil) for 2 days.
Experiment [2] has the same test system. The experiment in a line: Induction of increased cytosolic glutathione S-transferase activity in small bowel mucosa of A/J mice treated with 3 doses of 0.04 mM compound (dissolved in 0.3 mL of cottonseed oil) for 2 days.
Experiment [3] has the same test system. Put plainly: Induction of increased cytosolic glutathione S-transferase activity in bladder of A/J mice treated with 3 doses of 0.04 mM compound (dissolved in 0.3 mL of cottonseed oil) for 2 days. Conditions: Urinary bladder.
The test system is the same in experiment [4]. Put plainly: Induction of increased cytosolic glutathione S-transferase activity in lung of A/J mice treated with 3 doses of 0.04 mM compound (dissolved in 0.3 mL of cottonseed oil) for 2 days.
The test system is the same in experiment [5]. The experiment in a line: Induction of increased cytosolic glutathione S-transferase activity in liver of A/J mice treated with 3 doses of 0.04 mM compound (dissolved in 0.3 mL of cottonseed oil) for 2 days.
For experiment [6] the test system is unchanged. The experiment in a line: Induction of increased cytosolic glutathione S-transferase activity in forestomach of A/J mice treated with 3 doses of 0.04 mM compound (dissolved in 0.3 mL of cottonseed oil) for 2 days. The note with it: Stomach.

For `S=C=NCCCc1ccccc1`, the Activity (uM min-1 (mg of protein)-1) in experiment [1] turned out to be 0.37; in experiment [2] it was 1.37; in experiment [3], 5.87; in experiment [4], 0.42; in experiment [5], 1.2; in experiment [6], 0.98.

Source of the values: ChEMBL document CHEMBL1126017, “Phenylalkyl isothiocyanate-cysteine conjugates as glutathione S-transferase stimulating agents” (J Med Chem, 1992).
